Inhibition data for 2 molecules are collected here from PubChem BioAssay AID2544 (Sanford-Burnham Center for Chemical Genomics, 2010).

Amino acid sequences for entries named in this document (tags omitted).
UniProt P09923, whole entry: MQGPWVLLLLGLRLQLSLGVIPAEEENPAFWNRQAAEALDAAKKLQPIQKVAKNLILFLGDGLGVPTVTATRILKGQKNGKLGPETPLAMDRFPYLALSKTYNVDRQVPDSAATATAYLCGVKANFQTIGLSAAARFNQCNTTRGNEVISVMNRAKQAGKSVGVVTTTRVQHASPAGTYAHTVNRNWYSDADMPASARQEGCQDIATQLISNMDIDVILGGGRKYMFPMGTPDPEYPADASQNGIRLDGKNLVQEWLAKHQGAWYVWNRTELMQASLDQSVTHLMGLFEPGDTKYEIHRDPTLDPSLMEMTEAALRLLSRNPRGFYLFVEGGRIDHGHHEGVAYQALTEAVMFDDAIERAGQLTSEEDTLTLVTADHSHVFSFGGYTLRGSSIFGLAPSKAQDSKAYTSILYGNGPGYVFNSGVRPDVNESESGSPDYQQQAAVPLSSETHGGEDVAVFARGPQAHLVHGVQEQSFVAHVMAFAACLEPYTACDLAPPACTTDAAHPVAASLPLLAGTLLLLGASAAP

Molecules are shown by their SMILES. The entries are a selection whose mix differs from that of the whole data set. Calls of active or inactive are those of the source.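 How the source made its calls: active means inhibition reaching a set limit with compound at 10 µM in the primary screen (cut at about 35% in these data); inactive means the rest.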

The target of the experiment is Intestinal-type alkaline phosphatase (Homo sapiens) (UniProt P09923). The experiment is described as follows: blockers of intestinal alkaline phosphatase activity – biochemical, luminescence, uHTS, primary screen (AID 2544).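 Further: plate controls were DMSO wells with enzyme for no effect and no-enzyme buffer wells for full effect.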 To be noted: purified IAP, CDP-Star luminescence, 30 min; at 10 µM; hits give high values.
In general, inhibition refers to the change of the read-out against control, counted positive when it falls. `CCC(=O)N(c1ccccc1)C1(COC)CCN(CCn2nnn(CC)c2=O)CC1`: the inhibition was inactive: 3.5%. With `CCC(=O)N(c1ccccc1)C1(COC)CCN(CCc2cccs2)CC1`, the inhibition is inactive: -12.5%.
